{
  "source": "patent US20080145918A1",
  "about": "“Method for the Detoxification of a Hazardous Compound” (published 2008)",
  "origin": "cited, not measured here",
  "tested_on": "guppy",
  "settings": "comparative example (reference 1); cited from earlier work",
  "data": [
    {"smiles": "C[As](C)(=O)O", "values": [
      {"measurement": "rate of methylated arsenic in the total arsenic", "value": 1.2, "unit": "%"}
    ]}
  ]
}
